Source: patent US20220370630A1, “TRANSMUCOSAL DELIVERY SYSTEM FOR PHARMACEUTICAL ACTIVE INGREDIENT TO SUBMUCOSAL TISSUE OF BLADDER” (SEIKAGAKU CORPORATION, priority 2019, published 2022)

Assays:
[1] = Release test: release ratio of API from the derivative in phosphate buffer solution pH 7.4 at 36° C., HPLC; assay type: physicochemical; settings: phosphate buffer pH 7.4, 36° C.; for Release ratio of API: 5 mg/10 mL; for Release rate: slope of release ratio against time
Description: In Examples pertaining to a release test, a release ratio of a pharmaceutical active ingredient (API) from a chondroitin sulfate derivative and a hyaluronic acid derivative, each of which was not fluorescently labeled was evaluated as follows. […] The release ratio was calculated based on the ratio of peak areas of HPLC corresponding to the amount of API in the derivative and the amount of released API using a size-exclusion chromatography column (TSKgel α, manufactured by Tosoh Corporation). Release ratio (%)=peak area of released API/(peak area of API in each derivative+peak area of released API)×100 Also with respect to the hyaluronic acid derivatives of Comparative Examples 2 to 3, evaluation was performed in the same manner as for Examples.

[2] = Evaluation using rat 1: fluorescence imaging of bladder frozen sections after administration of fluorescently labeled compounds to the lumen of the bladder, integrated luminance; assay type: in vivo; settings: for Integrated value of luminance (on day 1 after administration): relative value based on Example 1, 0.2 mL of 1% (w/v) into the bladder lumen for 30 minutes, hydrochloric acid-pretreated female SD rat, frozen section
Description: The concentration of each of the fluorescently labeled compounds in the test substances was set to 1% (w/v).
The lower abdomen of a rat (SD strain (SPF), female, at 7 to 9 weeks of age) was pressed under isoflurane inhalation anesthesia (concentration: 2.0 to 4.0%, flow rate: 2 to 3 L/min) to evacuate residual urine from the bladder of the rat. A catheter (PE50) was transurethrally inserted into the lumen of the bladder, and the lumen of the bladder was washed with 0.2 mL of physiological saline. Thereafter, 0.2 mL of 0.4 mol/L hydrochloric acid was injected into the lumen of the bladder and allowed to stay there for 3 minutes and 15 seconds. After allowing hydrochloric acid to stay there, the lumen of the bladder was washed four times with 0.4 mL of physiological saline.
On day 1 after the pretreatment, 0.2 mL of each test substance was transurethrally administered to the lumen of the bladder using a catheter (PE50) under isoflurane inhalation anesthesia and allowed to stay there for 30 minutes.
On day 1 after the administration of the test substance, the bladder of the rat was collected, and a frozen section was prepared perpendicularly to an axis connecting the top of the bladder to the urethra. With respect to the frozen section, a bright field image (visible light) and a fluorescent image (excitation wavelength: 470 nm, absorption wavelength: 525 nm) were captured using a fluorescence microscope. Further, the obtained fluorescent image was analyzed by Hybrid Cell Count of Software (BZ-X Analyzer) attached to the fluorescence microscope. The extraction threshold for fluorescence was set to 40, and an integrated value of the luminance of each fluorescent image was calculated.

Substance	Release ratio of API ([1]; elapsed time 0 days)	Release ratio of API ([1]; elapsed time 1 day)	Release ratio of API ([1]; elapsed time 2 days)	Release ratio of API ([1]; elapsed time 3 days)	Release ratio of API ([1]; elapsed time 4 days)	Release ratio of API ([1]; elapsed time 5 days)	Release ratio of API ([1]; elapsed time 6 days)	Release ratio of API ([1]; elapsed time 7 days)	Release rate [1]	Release of API (result in words) ([1]; 1 week)	Integrated value of luminance (on day 1 after administration) [2]	Integrated value of luminance (on day 7 after administration) ([2]; rat, in vivo)
2-aminoethyl-naproxen-introduced CS [CS-NAP-conjugate]	0.08%	0.27%	0.39%	0.52%	0.68%	0.82%	0.97%	1.06%	0.14%/day			
21-β-Alanyl-Triamcinolone Acetonide-Introduced HA [HA-TA-conjugate, reference compound]	23.23%	32.86%	40.59%	47.40%	53.06%	57.00%	61.61%	63.76%	5.74%/day	a substantial release of the active ingredient was already confirmed at the start of the test		
21-β-alanyl-triamcinolone acetonide-introduced CS [CS-TA-conjugate]	0.10%	1.22%	1.91%	2.93%	3.92%	4.52%	5.73%	6.17%	0.48%/day			
Fluorescently Labeled 2-Aminoethyl-Diclofenac-Introduced CS [Fluorescently labeled CS-DIC-conjugate]											2.36	
Fluorescently Labeled 3-Aminopropyl Cinnamate-Introduced HA [Fluorescently labeled HA-CIN-conjugate, reference compound]											0.05	
Fluorescently Labeled 21-β-Alanyl-Triamcinolone Acetonide-Introduced CS [Fluorescently labeled CS-TA-conjugate]												1.00
